Measurements as given in patent publication US20040192652A1, “Pharmaceutical combinations and methods for the treatment of leukemia” (priority 2002, published 2004).

How the values were obtained:
KBM5-STI^R1.0 cells = settings: KBM5-STIR^R1.0 vs parental KBM5
[1] = test system: KBM-5 chronic myeloid leukemia cells; experiment: In vivo antitumor activity (survival) in mice bearing KBM-5 cells; settings: KBM-5, third (combination) experiment, 50 mg/kg ip, bid × 10
Method: Three to five week-old ICR SCID female mice weighting 20-25 g were obtained from Taconic farms. They were acclimatized for a week prior to the experiment. The animals were maintained on a standard animals feed and drinking water ad libitum. Mice were housed in an air-conditioned room at the temperature of 22±1° C. and 50-70% humidity with a 12/12 h-light/dark cycle throughout the experiment.
Mice were irradiated (1×250 centigray; cGy) and injected i.p. with 2×10^7 or 2,4×10^7 KBM-5 or KBM-5R tumor cells, respectively. […] In primary experiments (with KBM-5 cells) or secondary experiments (with KBM-5R cells), tumor-bearing animals were randomised (8-10 per group and treated by Troxatyl™ i.p. at 5, 10, 20, or 25 mg/kg once a day for 5 consecutive days (days 20-24). Control (untreated) mice received saline. In third experiments (with KBM-5 cells), tumor bearing animals (6 per group) were treated by one of the following schemes:
Animals in complete remission, free of detectable tumor (negative for human DQα-gen) were considered cured.
LTS were electively sacrificed on Day 95 in single agent experiments or on Day 100 in combination treatment experiment.

KBM7-STI^R1.0 cells = settings: KBM7-STI^R1.0 vs parental KBM7

SMILES: Cc1ccc(NC(=O)c2ccc(CN3CCN(C)CC3)cc2)cc1Nc1nccc(-c2cccnc2)n1 [STI-571, imatinib mesylate]
- IC50 relative to the corresponding parental cell line (KBM5-STI^R1.0 cells): about twenty
- T/C % [1]: 108.95%
- IC50 relative to the corresponding parental cell line (KBM7-STI^R1.0 cells): about twenty

Structures can show the parent of a compound that is named as a salt.
